Data: publication PMC10327353 (Breast Cancer Research : BCR, 2023)
Marks after values point to notes of the source that are not given here. Each block holds one compound with its values, some of them ahead of it.

Sequences of proteins named here, by UniProt entry; tags and fusion partners are left off. Residues count along the entry.
UniProt P04626, 23-1255 limits assumed: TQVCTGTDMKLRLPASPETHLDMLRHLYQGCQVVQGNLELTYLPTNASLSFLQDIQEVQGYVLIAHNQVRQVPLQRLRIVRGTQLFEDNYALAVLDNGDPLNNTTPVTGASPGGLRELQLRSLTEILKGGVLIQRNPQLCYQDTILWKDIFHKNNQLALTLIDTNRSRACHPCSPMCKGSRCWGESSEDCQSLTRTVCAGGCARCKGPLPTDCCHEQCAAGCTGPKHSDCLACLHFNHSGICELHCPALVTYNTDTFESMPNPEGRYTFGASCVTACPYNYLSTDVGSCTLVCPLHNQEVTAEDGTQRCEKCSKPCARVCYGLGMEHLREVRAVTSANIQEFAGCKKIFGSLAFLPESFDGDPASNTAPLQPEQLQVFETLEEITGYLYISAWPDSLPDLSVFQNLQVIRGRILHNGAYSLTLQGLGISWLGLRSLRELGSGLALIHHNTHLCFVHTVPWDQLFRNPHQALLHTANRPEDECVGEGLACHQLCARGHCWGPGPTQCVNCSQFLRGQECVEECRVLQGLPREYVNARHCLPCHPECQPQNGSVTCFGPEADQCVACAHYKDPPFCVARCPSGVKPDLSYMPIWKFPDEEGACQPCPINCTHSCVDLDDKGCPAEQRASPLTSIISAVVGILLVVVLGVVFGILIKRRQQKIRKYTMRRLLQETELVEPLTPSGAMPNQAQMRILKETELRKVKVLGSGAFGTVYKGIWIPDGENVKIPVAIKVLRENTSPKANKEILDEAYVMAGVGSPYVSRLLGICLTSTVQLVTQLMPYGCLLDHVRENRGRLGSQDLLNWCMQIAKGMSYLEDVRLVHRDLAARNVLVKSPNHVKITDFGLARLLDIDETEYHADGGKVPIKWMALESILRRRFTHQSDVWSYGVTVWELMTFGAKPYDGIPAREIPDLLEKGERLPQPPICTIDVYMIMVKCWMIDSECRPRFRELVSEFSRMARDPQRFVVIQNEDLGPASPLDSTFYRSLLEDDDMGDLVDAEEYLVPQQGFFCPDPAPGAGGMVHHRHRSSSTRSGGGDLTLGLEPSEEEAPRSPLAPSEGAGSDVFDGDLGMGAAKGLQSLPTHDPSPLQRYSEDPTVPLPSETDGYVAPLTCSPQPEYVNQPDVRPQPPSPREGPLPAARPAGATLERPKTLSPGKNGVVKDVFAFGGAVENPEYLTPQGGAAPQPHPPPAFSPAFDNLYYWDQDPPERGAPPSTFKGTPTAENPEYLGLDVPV
UniProt P08183, whole entry: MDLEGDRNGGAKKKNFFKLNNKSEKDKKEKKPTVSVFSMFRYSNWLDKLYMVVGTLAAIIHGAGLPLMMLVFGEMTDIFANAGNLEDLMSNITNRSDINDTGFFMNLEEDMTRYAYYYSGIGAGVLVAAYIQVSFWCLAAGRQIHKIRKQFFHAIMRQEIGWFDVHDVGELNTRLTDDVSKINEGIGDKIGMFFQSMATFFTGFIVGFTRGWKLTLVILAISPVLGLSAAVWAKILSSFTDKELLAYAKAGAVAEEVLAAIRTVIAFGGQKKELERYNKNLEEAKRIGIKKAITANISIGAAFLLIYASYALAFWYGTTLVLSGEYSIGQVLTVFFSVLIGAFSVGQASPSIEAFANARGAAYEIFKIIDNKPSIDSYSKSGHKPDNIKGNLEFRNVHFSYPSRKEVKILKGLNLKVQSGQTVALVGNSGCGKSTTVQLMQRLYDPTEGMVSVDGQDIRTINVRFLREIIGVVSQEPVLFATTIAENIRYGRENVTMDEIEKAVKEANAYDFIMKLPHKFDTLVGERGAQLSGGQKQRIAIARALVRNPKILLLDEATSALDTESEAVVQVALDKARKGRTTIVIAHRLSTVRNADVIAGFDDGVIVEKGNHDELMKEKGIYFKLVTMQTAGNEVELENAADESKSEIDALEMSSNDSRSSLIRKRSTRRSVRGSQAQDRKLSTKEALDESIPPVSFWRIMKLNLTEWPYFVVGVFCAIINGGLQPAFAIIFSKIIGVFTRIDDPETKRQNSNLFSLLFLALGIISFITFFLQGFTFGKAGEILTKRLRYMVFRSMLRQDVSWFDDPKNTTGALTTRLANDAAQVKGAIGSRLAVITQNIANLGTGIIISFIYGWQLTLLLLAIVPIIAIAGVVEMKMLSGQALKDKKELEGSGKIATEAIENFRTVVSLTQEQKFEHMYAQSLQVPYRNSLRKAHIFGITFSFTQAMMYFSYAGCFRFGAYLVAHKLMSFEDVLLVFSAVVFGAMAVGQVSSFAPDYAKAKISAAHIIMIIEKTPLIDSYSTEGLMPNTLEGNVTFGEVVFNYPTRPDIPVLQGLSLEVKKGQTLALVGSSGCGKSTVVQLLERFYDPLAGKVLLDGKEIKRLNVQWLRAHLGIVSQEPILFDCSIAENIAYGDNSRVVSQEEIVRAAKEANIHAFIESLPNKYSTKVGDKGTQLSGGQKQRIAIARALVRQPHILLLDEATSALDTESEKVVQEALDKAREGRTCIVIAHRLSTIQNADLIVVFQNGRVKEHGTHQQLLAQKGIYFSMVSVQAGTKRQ

Columns and labels:
HER2 [1] = molecular target: T1, HER2 (Homo sapiens, UniProt P04626); assay: In vitro HER2 enzymatic assay (Lance Ultra Kinase Assay); conditions: read-out: IC50 against HER2 in the enzymatic assay; recombinant HER2, 2 mM ATP
[2] = Phase 1 study: CSF penetration (Kp,uu,CSF)
[3] = Phase 1 study: plasma pharmacokinetics
P-gp (MDR1) = P-gp (MDR1) (Homo sapiens, UniProt P08183); assay: P-gp efflux ratio, bi-directional transport assay
[4] = Human hepatocyte intrinsic clearance; assay type: in vitro ADME; conditions: human hepatocytes
[5] = In vivo CNS-PK study in monkey; conditions: single PO dose of DZD1516 30 mg/kg
BT474C1 cells = assay: Cell proliferation assay (CellTiter-Glo), BT474C1; conditions: BT474C1, 72 hrs
P-gp-BCRP = P-gp-BCRP efflux ratio, cellular transport assay; assay type: in vitro ADME, human
HER2 [6] = molecular target: T1, HER2; assay: pHER2 MSD assay in BT474C1 cells; assay type: cell-based; conditions: read-out: pHER2 IC50; BT474C1, 4 hrs treatment

- IC50 (HER2 [1]): 0.95 nM
- CSF conc ([2]; 50 mg, subject 1): 0.549 nmol/L
- Free plasma conc ([2]; 50 mg, subject 1): 2.52 nM
- Kp,uu,CSF ([2]; 50 mg, subject 1): 0.218
- CSF conc ([2]; 50 mg, subject 2): 1.12 nmol/L
- Free plasma conc ([2]; 50 mg, subject 2): 1.47 nM
- Kp,uu,CSF ([2]; 50 mg, subject 2): 0.765
- CSF conc ([2]; 100 mg, subject 3): 3.15 nmol/L
- Free plasma conc ([2]; 100 mg, subject 3): 7.23 nM
- Kp,uu,CSF ([2]; 100 mg, subject 3): 0.436
- CSF conc ([2]; 100 mg, subject 4): 2.10 nmol/L
- Free plasma conc ([2]; 100 mg, subject 4): 1.31 nM
- Kp,uu,CSF ([2]; 100 mg, subject 4): 1.6
- CSF conc ([2]; 100 mg, subject 5): 1.65 nmol/L
- Free plasma conc ([2]; 100 mg, subject 5): 1.66 nM
- Kp,uu,CSF ([2]; 100 mg, subject 5): 0.995
- CSF conc ([2]; 200 mg, subject 6): 3.95 nmol/L
- Free plasma conc ([2]; 200 mg, subject 6): 7.20 nM
- Kp,uu,CSF ([2]; 200 mg, subject 6): 0.549
- CSF conc ([2]; 250 mg, subject 7): 3.88 nmol/L
- Free plasma conc ([2]; 250 mg, subject 7): 9.15 nM
- Kp,uu,CSF ([2]; 250 mg, subject 7): 0.424
- CSF conc ([2]; 250 mg, subject 8): 9.13 nmol/L
- Free plasma conc ([2]; 250 mg, subject 8): 8.58 nM
- Kp,uu,CSF ([2]; 250 mg, subject 8): 1.06
- mean Kp,uu,CSF ([2]; patients with CNS metastases): 0.76
- AUC0-10, Geometric Mean [CV%] ([3]; Day 1, 250 mg DZD1516): 3400 [51.89] hr*ng/mL
- AUC0-72, Geometric Mean [CV%] ([3]; Day 1, 250 mg DZD1516): 7146 [48.56] hr*ng/mL
- Cmax, Geometric Mean [CV%] ([3]; Day 1, 250 mg DZD1516): 738.0 [61.14] ng/mL
- t1/2, Mean (SD) ([3]; Day 1, 250 mg DZD1516): 13.36 (4.503)^a hr
- tmax, Median (Min, Max) ([3]; Day 1, 250 mg DZD1516): 5.867 (1.97,7.97) hr
- AUC0-10, Geometric Mean [CV%] ([3]; Day 15, 250 mg BID DZD1516): 4401 [55.16] hr*ng/mL
- Css,max, Geometric Mean [CV%] ([3]; Day 15, 250 mg BID DZD1516): 724.0 [44.98] ng/mL
- Css,min, Geometric Mean [CV%] ([3]; Day 15, 250 mg BID DZD1516): 237.1 [57.36] ng/mL
- tss,max, Median (Min, Max) ([3]; Day 15, 250 mg BID DZD1516): 2.383 (0.000,4.00) hr
- MRAUC, Mean (SD) ([3]; Day 15, 250 mg BID, DZ2678(AUC0-10)/DZD1516(AUC0-10)): 0.5970 (0.1106)
- Efflux ratio P-gp @1 µM (P-gp (MDR1)): 2.8
- Human Heps Clint [4]: 7.7 (µL/min)/(10^6 cells)
- Kp,uu,CSF [5]: 0.865
- GI50 (BT474C1 cells): 13 nM
- Efflux ratio P-gp-BCRP @1 µM (P-gp-BCRP; 1 µM): 6.5
SMILES: COc1cc(O[C@H]2CCNCC2(F)F)c2c(Nc3ccc(Oc4ccn5ncnc5c4)c(C)c3)ncnc2c1
- active efflux via P-gp and BCRP (P-gp-BCRP; in vitro): do not undergo active efflux via P-gp and BCRP in vitro

- IC50 (HER2 [6]): 11 nM
- Efflux ratio P-gp @1 µM (P-gp (MDR1)): 0.84
- GI50 (BT474C1 cells): 25 nM
SMILES: Cc1cc(Nc2ncnc3cccc(OC4CCN(C)CC4(F)F)c23)ccc1Oc1ccn2ncnc2c1 (single isomer, unassigned) [Cpd-3]
